Measurements as given in patent US10980860B2, “Diagnosis, prevention and treatment of diseases of the joint” (Ascendis Pharma A/S, priority 2012, dated 2021).

System: ACLT-induced arthritic rabbits
Experiment: Chondroprotective effect of intra-articular IL-1ra linker hydrogel prodrug in ACLT rabbits
Type: in vivo, female Hyla NG rabbits
Details: eight weeks after intraarticular injection
Description: Arthritis was induced in 24 weeks old female Hyla NG rabbits (average weight 4.4 kg) by anterior cruciate ligament transection (ACLT) of the right knee. Four days after surgery animals were injected intraarticularly with IL-1ra linker hydrogel prodrug 16a (7.5 mg IL-1ra content) in 350 μl citrate buffer pH 6.5 or with 350 μl citrate buffer alone. Eight weeks after injection, animals were sacrificed. The severity of macroscopic changes on cartilage of the right knee were graded by India Ink uptake. […] Osteophyte formation on the medial condyle was less intense in the IL-1ra group compared to control group.

B1: 16a: IL-1ra linker hydrogel prodrug from maleimide functionalized hydrogel beads 14a and IL-1ra-linker conjugate 15c; 0.67 mg IL1RA/mg hydrogel (conjugate, UniProt P18510 26-177, looked up)
Interleukin-1 receptor …: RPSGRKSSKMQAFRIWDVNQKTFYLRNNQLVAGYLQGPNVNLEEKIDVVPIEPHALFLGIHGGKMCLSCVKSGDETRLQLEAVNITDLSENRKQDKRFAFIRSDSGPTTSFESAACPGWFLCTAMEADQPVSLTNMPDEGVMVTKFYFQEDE
modifications: linker-hydrogel prodrug
notes: IL-1ra linker hydrogel prodrug from maleimide functionalized hydrogel beads 14a and IL-1ra-linker conjugate 15c; 0.67 mg IL1RA/mg hydrogel
Signs of cartilage degradation (India Ink uptake, right knee) (7.5 mg IL-1ra content, vs citrate buffer control): much less signs of degradation compared to the control group
Osteophyte formation in the tibial plateau (vs control group): no signs of osteophyte formation
Osteophyte formation on the medial condyle (vs control group): less intense
